Values quoted from earlier work, collected in patent publication US20140271726A1, “COMPOSITIONS AND METHODS FOR […] SUSCEPTIBILITY TO ANTIVIRAL AGENTS” (WISCONSIN ALUMNI RESEARCH FOUNDATION, priority 2013, published 2014).

Tested on: HCV
Details: six-month course, patients with chronic hepatitis C, p=0.01

Q: Which sustained virological responses does the source give for “interferon alone: alpha interferon used for HCV treatment in the cited Japanese trial” here?
A: 32%
